{"source": "ChEMBL document CHEMBL2163206", "about": "“New nitrogen containing substituents at the indole-2-carboxamide yield high potent and broad spectrum indolylarylsulfone HIV-1 non-nucleoside reverse transcriptase inhibitors” (J Med Chem, 2012)", "biological_target": "Human immunodeficiency virus type 1 reverse transcriptase (Human immunodeficiency virus 1, UniProt Q72547)", "assay": "Inhibition of wild type HIV1 reverse transcriptase RNA-dependent DNA polymerase activity using poly(rA)/oligo(dT)10:1 and [3H]-dTTP substrate", "data": [{"compound": "Cc1cc(C#N)cc(C)c1Oc1nc(Nc2ccc(C#N)cc2)nc(N)c1Br", "note": "[ETRAVIRINE]", "values": [{"measurement": "IC50", "result": 10, "unit": "nM"}]}]}
